Assay results reported in patent EP3026061A1 (NOVO NORDISK A/S, dated 2016).

By UniProt entry, the sequences of proteins in these tests, tags left out. Chains listed by the source or under a name are the forms on record and can include a tag or linker. Residues count along the entry.
UniProt Q9NP99, 21-205, form in doubt: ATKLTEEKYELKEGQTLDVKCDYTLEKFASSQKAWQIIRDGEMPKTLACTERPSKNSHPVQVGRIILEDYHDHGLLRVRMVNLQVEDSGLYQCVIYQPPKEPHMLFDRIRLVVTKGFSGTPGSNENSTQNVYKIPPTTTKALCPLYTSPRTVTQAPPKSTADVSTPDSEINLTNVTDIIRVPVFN

Biological target: T1, human TREM-1-Fc (human, UniProt Q9NP99 21-205)
T1 construct: also called His tagged human TREM-1; hTREM-1
Test: SPR (ProteOn), captured mAb, TREM-1 as analyte, 1:1 fit

Kd | koff | kon | Binder
0.2 nM | 0.0006 s⁻¹ | 4e+06 M⁻¹ s⁻¹ | mAb 0319 (antibody, human IgG4 S228P, kappa, V domains shown, Variant of mAb 0170) VH: EVQLVESGGGLVQPGGSLKLSCAASGFTFSTYAMHWVRQASGKGLEWVGRIRTKSSNYATYYAASVKGRFTISRDDSKNTAYLQMNSLKTEDTAVYYCTRDMGIRRQFAYWGQGTLVTVSS VL: DIVLTQSPDSLAVSLGERATINCRASESVDTFDYSFLHWYQQKPGQPPKLLIYRASNLESGVPDRFSGSGSGTDFTLTISSLQAEDVAVYYCQQSNSDPYTFGQGTKLEIKR
0.08 nM | 0.0003 s⁻¹ | 4e+06 M⁻¹ s⁻¹ | mAb 0325 (antibody, human IgG4 S228P, kappa, V domains shown, Variant of mAb 0170) VH: EVQLVESGGGLVQPGGSLKLSCAASGFTFSTYAMHWVRQASGKGLEWVGRIRTKSSSYATYYAASVKGRFTISRDDSKNTAYLQMNSLKTEDTAVYYCTRDMGIRRQFAYWGQGTLVTVSS VL: DIVLTQSPDSLAVSLGERATINCRASESVDTFDYSFLHWYQQKPGQPPKLLIYRASNLESGVPDRFSGSGSGTDFTLTISSLQAEDVAVYYCQQSNEDPYTFGQGTKLEIKR
0.2 nM | 0.0008 s⁻¹ | 4e+06 M⁻¹ s⁻¹ | mAb 0320 (antibody, human IgG4 S228P, kappa, V domains shown, Variant of mAb 0170) VH: EVQLVESGGGLVQPGGSLKLSCAASGFTFSTYAMHWVRQASGKGLEWVGRIRTKSSNYATYYAASVKGRFTISRDDSKNTAYLQMNSLKTEDTAVYYCTRDMGIRRQFAYWGQGTLVTVSS VL: DIVLTQSPDSLAVSLGERATINCRASESVDTFDYSFLHWYQQKPGQPPKLLIYRASNLESGVPDRFSGSGSGTDFTLTISSLQAEDVAVYYCQQSNQDPYTFGQGTKLEIKR
0.3 nM | 0.0008 s⁻¹ | 3e+06 M⁻¹ s⁻¹ | mAb 0324 (antibody, human IgG4 S228P, kappa, V domains shown, Variant of mAb 0170) VH: EVQLVESGGGLVQPGGSLKLSCAASGFTFSTYAMHWVRQASGKGLEWVGRIRTKSSNYYTYYAASVKGRFTISRDDSKNTAYLQMNSLKTEDTAVYYCTRDMGIRRQFAYWGQGTLVTVSS VL: DIVLTQSPDSLAVSLGERATINCRASESVDTFDYSFLHWYQQKPGQPPKLLIYRASNLESGVPDRFSGSGSGTDFTLTISSLQAEDVAVYYCQQSNEDPYTFGQGTKLEIKR
0.2 nM | 0.0007 s⁻¹ | 3e+06 M⁻¹ s⁻¹ | mAb 0326 (antibody, human IgG4 S228P, kappa, V domains shown, Variant of mAb 0170) VH: EVQLVESGGGLVQPGGSLKLSCAASGFTFSTYAMHWVRQASGKGLEWVGRIRTKSSSYYTYYAASVKGRFTISRDDSKNTAYLQMNSLKTEDTAVYYCTRDMGIRRQFAYWGQGTLVTVSS VL: DIVLTQSPDSLAVSLGERATINCRASESVDTFDYSFLHWYQQKPGQPPKLLIYRASNLESGVPDRFSGSGSGTDFTLTISSLQAEDVAVYYCQQSNEDPYTFGQGTKLEIKR
0.3 nM | 0.0006 s⁻¹ | 2e+06 M⁻¹ s⁻¹ | mAb 0323 (antibody, human IgG4 S228P, kappa, V domains shown, Variant of mAb 0170) VH: EVQLVESGGGLVQPGGSLKLSCAASGFTFSTYAMHWVRQASGKGLEWVGRIRTKSSNYATYYAASVKGRFTISRDDSKNTAYLQMNSLKTEDTAVYYCTRDMGIRRQFAYWGQGTLVTVSS VL: DIVLTQSPDSLAVSLGERATINCRASESVDTSDYSFLHWYQQKPGQPPKLLIYRASNLESGVPDRFSGSGSGTDFTLTISSLQAEDVAVYYCQQSNEDPYTFGQGTKLEIKR
0.5 nM | 0.001 s⁻¹ | 3e+06 M⁻¹ s⁻¹ | mAb 0332 (antibody, human IgG4 S228P, kappa, V domains shown, Variant of mAb 0170) VH: EVQLVESGGGLVQPGGSLKLSCAASGFTFSTYAMHWVRQASGKGLEWVGRIRTKSSNYYTYYAASVKGRFTISRDDSKNTAYLQMNSLKTEDTAVYYCTRDMGIRRQFAYWGQGTLVTVSS VL: DIVLTQSPDSLAVSLGERATINCRASQSVDTFDYSFLHWYQQKPGQPPKLLIYRASNLESGVPDRFSGSGSGTDFTLTISSLQAEDVAVYYCQQSNQDPYTFGQGTKLEIKR

Further lines, the binder ahead of its results:

Binder | Kd | koff | kon
mAb 0317 (antibody, human IgG4 S228P, kappa, V domains shown, Variant of mAb 0170) VH: EVQLVESGGGLVQPGGSLKLSCAASGFTFSTYAMHWVRQASGKGLEWVGRIRTKSSNYATYYAASVKGRFTISRDDSKNTAYLQMNSLKTEDTAVYYCTRDMGIRRQFAYWGQGTLVTVSS VL: DIVLTQSPDSLAVSLGERATINCRASQSVDTFDYSFLHWYQQKPGQPPKLLIYRASNLESGVPDRFSGSGSGTDFTLTISSLQAEDVAVYYCQQSNSDPYTFGQGTKLEIKR | 0.2 nM | 0.0006 s⁻¹ | 4e+06 M⁻¹ s⁻¹
mAb 0321 (antibody, human IgG4 S228P, kappa, V domains shown, Variant of mAb 0170) VH: EVQLVESGGGLVQPGGSLKLSCAASGFTFSTYAMHWVRQASGKGLEWVGRIRTKSSNYATYYAASVKGRFTISRDDSKNTAYLQMNSLKTEDTAVYYCTRDMGIRRQFAYWGQGTLVTVSS VL: DIVLTQSPDSLAVSLGERATINCRASQSVDTFDYSFLHWYQQKPGQPPKLLIYRASNLESGVPDRFSGSGSGTDFTLTISSLQAEDVAVYYCQQSNEDPYTFGQGTKLEIKR | 0.2 nM | 0.0006 s⁻¹ | 4e+06 M⁻¹ s⁻¹
mAb 0330 (antibody, human IgG4 S228P, kappa, V domains shown, Variant of mAb 0170) VH: EVQLVESGGGLVQPGGSLKLSCAASGFTFSTYAMHWVRQASGKGLEWVGRIRTKSSNYATYYAASVKGRFTISRDDSKNTAYLQMNSLKTEDTAVYYCTRDMGIRRQFAYWGQGTLVTVSS VL: DIVLTQSPDSLAVSLGERATINCRASQSVDTADYSFLHWYQQKPGQPPKLLIYRASNLESGVPDRFSGSGSGTDFTLTISSLQAEDVAVYYCQQSNQDPYTFGQGTKLEIKR | 0.1 nM | 0.0003 s⁻¹ | 2e+06 M⁻¹ s⁻¹
mAb 0333 (antibody, human IgG4 S228P, kappa, V domains shown, Variant of mAb 0170) VH: EVQLVESGGGLVQPGGSLKLSCAASGFTFSTYAMHWVRQASGKGLEWVGRIRTKSSNYYTYYAASVKGRFTISRDDSKNTAYLQMNSLKTEDTAVYYCTRDMGIRRQFAYWGQGTLVTVSS VL: DIVLTQSPDSLAVSLGERATINCRASQSVDTADYSFLHWYQQKPGQPPKLLIYRASNLESGVPDRFSGSGSGTDFTLTISSLQAEDVAVYYCQQSNQDPYTFGQGTKLEIKR | 0.2 nM | 0.0005 s⁻¹ | 2e+06 M⁻¹ s⁻¹
mAb 0318 (antibody, human IgG4 S228P, kappa, V domains shown, Variant of mAb 0170) VH: EVQLVESGGGLVQPGGSLKLSCAASGFTFSTYAMHWVRQASGKGLEWVGRIRTKSSNYATYYAASVKGRFTISRDDSKNTAYLQMNSLKTEDTAVYYCTRDMGIRRQFAYWGQGTLVTVSS VL: DIVLTQSPDSLAVSLGERATINCRASQSVDTFDYSFLHWYQQKPGQPPKLLIYRASNLESGVPDRFSGSGSGTDFTLTISSLQAEDVAVYYCQQSNQDPYTFGQGTKLEIKR | 0.2 nM | 0.0007 s⁻¹ | 3e+06 M⁻¹ s⁻¹
